US4913891A, “Positron emitter labeled enzyme inhibitors” (The United States of America as represented by the United …, priority 1987, dated 1990)
Read-outs that look alike come from different tables or passages of the source.

Sequences of proteins named here, by UniProt entry; tags and fusion partners are left off.
UniProt P21397, whole entry: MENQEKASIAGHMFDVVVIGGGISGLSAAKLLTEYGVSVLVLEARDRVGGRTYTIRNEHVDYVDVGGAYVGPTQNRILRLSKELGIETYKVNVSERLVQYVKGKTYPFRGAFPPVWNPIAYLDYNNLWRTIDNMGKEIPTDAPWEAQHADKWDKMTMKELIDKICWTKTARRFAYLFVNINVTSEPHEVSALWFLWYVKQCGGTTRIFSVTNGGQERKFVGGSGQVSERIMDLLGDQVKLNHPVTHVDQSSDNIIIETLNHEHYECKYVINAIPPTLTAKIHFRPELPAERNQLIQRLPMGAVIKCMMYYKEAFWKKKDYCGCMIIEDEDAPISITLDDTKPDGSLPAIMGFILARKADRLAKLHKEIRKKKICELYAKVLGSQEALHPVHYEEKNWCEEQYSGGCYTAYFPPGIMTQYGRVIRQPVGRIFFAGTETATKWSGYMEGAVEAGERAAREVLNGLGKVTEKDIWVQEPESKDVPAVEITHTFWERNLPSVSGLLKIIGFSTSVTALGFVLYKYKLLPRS

Target: monoamine oxidase A (Homo sapiens, UniProt P21397)
Conditions: study 5, subject receiving phenelzine plus amphetamine for depression

Structure (SMILES): C#CCN([11CH3])CCCOc1ccc(Cl)cc1Cl [[^11 C]clorgyline]
- Ki influx rate constant (brainstem): 0.06 milliliters per cubic centimet
- Ki influx rate constant (cortex): 0.04 milliliters per cubic centimet
- Ki influx rate constant (striatum): 0.07 milliliters per cubic centimet
- Ki influx rate constant (thalamus): 0.08 milliliters per cubic centimet
